The values that follow are results of earlier work, collected in patent publication US20130030007A1, “Obesity Small Molecules” (AKRON MOLECULES GMBH, priority 2010, published 2013).

For this data set, the system named is human ortholog of Drosophila obesity gene. The conditions noted are these: interaction of the small molecule with the human ortholog(s) / Drosophila gene(s) listed in the same table line; cited from earlier work.

SMILES strings stand for the structures. This is a selection: effects in other tests are not listed, and their absence says nothing.

In the case of `O=[N+]([O-])c1cc([N+](=O)[O-])c(O)c([N+](=O)[O-])c1`, the “Type: Type of interaction” value is reported as “B”.
